Assays:
[1] = i.t.
Experimental: The rats were lightly anesthetized using inhaled 3.0-5.0% Isoflurane (Abbott Laboratories) mixed with oxygen for approximately 5 minutes in a plexiglass anesthesia chamber. Administration was accomplished by insertion of a gavage needle (Popper & Sons Inc.; 18×3″ W2-¼ mm ball, New Hyde Park, N.Y. 11040) fitted into a 1 mL syringe into the mouth of the rat down the trachea to just above the main carina. When inserting the gavage needle into the trachea, proper insertion was detected by feeling for the roughness of the cartilage rings under the skin of the throat using the ball of the gavage needle. Doses were administered into the lungs utilizing this method, and followed by removal of the gavage needle.
Fourteen (N=7/Group) fasted male rats (Hilltop Lab Animals, Scottsdale, Pa. (300-350 g)) with indwelling jugular vein catheters (JVC) were used for this study.

[2] = rats, 20, 30, 40 μg/animal

Substance: N^αB1-Methoxypoly(ethylene glycol)5K- propionamido-insulin [5K PEG insulin]
- duration of action compared with non-pegylated insulin (profiles in FIG. 4) ([1]; 150 μg/animal vs non-pegylated insulin 40 μg/animal): longer acting than non-pegylated insulin
- time at which blood levels of insulin were observed following intratracheal administration ([1]; 150 μg/animal, male rats): ≤ 1 h
- mean serum insulin concentrations following i.v. administration [2]: dose dependent
